Values quoted from earlier work as cited in patent publication US20230124634A1, “ANTIBACTERIAL COMPOSITION” (CONOPCO, INC., D/B/A UNILEVER, priority 2020, published 2023).

Conditions: cited from earlier work

Substance: Silver salicylate
- Ksp (mol/L in water at 25° C.): 1.5e-05 mol/L

Substance: Silver oxide
- Ksp (mol/L in water at 25° C.): 2.1e-08 mol/L
